An excerpt weighted towards active compounds, which were near 16% of everything screened.
uPA surface inh: blocks generation of uPA at the cell surface | cell surface uPA generation assay, qHTS | Potency, µM (highest dose often 38.3 µM), actives largely listed as inhibitors | 0.31% of 330,000 active | AID 540303; active = well fitted inhibition curve with a large enough effect; inconclusive = small, poorly fitted or top-dose-only effect; inactive = no such curve, though single readings can be large or run the other way; tested in mouse RAW 264.7 cells; note: nearly all actives have a fitted effect of over 55% in size
DT40 TDP1 CPT: DT40-hTDP1 cell growth loss with CPT; chicken DT40 Tdp1-/-;hTDP1 cells + 20 nM CPT, ATP luminescence, 48 h; Potency, µM (doses to about 46.2 µM), hits mostly inhibitors; 12% of 420,000 active; AID 686979; note: nearly all actives have a fitted effect of over 55% in size
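Chicken DT40 Tdp1-/- cells complemented with human TDP1, 400 cells/well, exposed to compounds plus 20 nM camptothecin for at least 48 h at 37 C; viability read as ATP content by CellTiter-Glo luminescence.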
TDP1 inh: inhibitors of human tyrosyl-DNA phosphodiesterase TDP1; Q9NUW8; recombinant TDP1, AlphaScreen DNA substrate cleavage; Potency, µM (highest dose often 130 µM), hits mostly inhibitors; 0.28% of 350,000 active; AID 485290; note: nearly all actives have a fitted effect of over 40% in size
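E. coli-derived human Tdp1, 1 nM final. Cpd preinc 15 min RT; substrate 15 nM final, 5 min RT; AS bead mix 10 ug/ml final, 10 min RT. Signal loss = tyrosine-FITC cleavage. No-enzyme wells = max signal.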
TDP1 cell noCPT: qHTS for Inhibitors of human tyrosyl-DNA phosphodiesterase 1 (TDP1): qHTS in cells in absence of CPT; Potency, µM (series often up to 46.2 µM), most hits filed as inhibitors; AID 686978, 2013; 15% of 420,000 active; DT40 Tdp1-/- hTDP1 cells, no CPT, ATP luminescence, 48 h; note: nearly all actives have a fitted effect of over 55% in size
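Chicken DT40 Tdp1-/- cells stably complemented with human TDP1 were seeded at 400 cells/well with DMSO in place of 20 nM camptothecin. After compound pinning, cells grew at least 48 hr at 37 °C; viability read by CellTiter-Glo luminescence.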
miR-21 reporter: raises the signal of a miR-21 reporter | HeLa miR-21 FLuc reporter, luciferase, 48 h | 340,000 tested, under 10 active | Potency, µM (titrated, usually from 38.3 µM); active = well fitted rising curve with a large enough effect; inconclusive = small, poorly fitted or top-dose-only effect; inactive = no such curve, though single readings can be large or run the other way;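 further: miR-21 action dims this reporter so a rising signal means less miR-21 action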
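HeLa cells endogenously expressing miR-21, stably carrying CMV-driven firefly luciferase with a downstream miR-21 binding site, 2000 cells/well. Titrations up to approximately 40 uM, 48 hours; luciferase luminescence read.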
Each line names hits and unclear results; the compound was inactive in the other large screens. Unless noted, calls come from the whole dose curve; as a rule, active = well fitted curve in the direction sought with a large enough effect; inconclusive = small, poorly fitted or top-dose-only effect, or another doubt; inactive = no such curve, though single readings can be large; an effect the other way counts as inactive or inconclusive.

CCC(C(=O)NCCc1ccc(Cl)cc1)n1ccc2cc(S(=O)(=O)N3CCCCC3)ccc21 (configuration not stated)	DT40 TDP1 CPT 13µM, TDP1 cell noCPT inconclusive, miR-21 reporter inconclusive (no result: uPA surface inh)
CCc1ccc(CNC(=O)C2CCCN(S(=O)(=O)c3ccc4c(ccn4C)c3)C2)cc1 (configuration not stated)	DT40 TDP1 CPT 21µM, TDP1 cell noCPT 15µM (no result: uPA surface inh)
COc1ccc(CNC(=O)C2CCN(S(=O)(=O)N3CCCCC3)CC2)cc1	none
COC(=O)CCCCCC(CCC(=O)OC)NC(C)=O (configuration not stated)	none
CCOC(=O)c1c(NC(=S)N2CCOCC2)sc2c1CCN(C(=O)OCC)C2	DT40 TDP1 CPT inconclusive, TDP1 cell noCPT inconclusive
CC(=O)OC[C@@H]1CN(Cc2ccccc2)C[C@H](n2ccc3c(N)ncnc32)O1	none (no result: uPA surface inh, TDP1 inh, miR-21 reporter)
Cc1nc(-c2ccc(S(=O)(=O)N3CCN(c4cc(Cl)ccc4C)CC3)cc2)co1	none (no result: uPA surface inh)
Clc1ccc(CN=C(Nc2ccccc2)NC2CCCCC2)cc1	DT40 TDP1 CPT 18µM, TDP1 cell noCPT 23µM (no result: TDP1 inh)
CCOc1ccc2nc3cc(N=Nc4ccc(N)nc4N)ccc3c(N)c2c1	DT40 TDP1 CPT 5.8µM, TDP1 cell noCPT 2.6µM (no result: TDP1 inh, miR-21 reporter)
COc1ccc(CN2C(=O)C(NC(=O)c3ccccc3OC)(C(F)(F)F)N=C2c2ccccc2)cc1 (configuration not stated)	DT40 TDP1 CPT 18µM, TDP1 cell noCPT 15µM (no result: uPA surface inh)
Cc1cccc(C(=O)NC2(C(F)(F)F)N=C(c3ccccc3)N(Cc3ccccc3)C2=O)c1 (configuration not stated)	DT40 TDP1 CPT inconclusive, TDP1 cell noCPT inconclusive (no result: uPA surface inh)
Cc1ccc(C)c(Cc2c(C)nc3c(C(=O)N4CCOCC4)cnn3c2C)c1	DT40 TDP1 CPT 16µM, TDP1 cell noCPT 22µM (no result: uPA surface inh)
Cc1nc2c(C(=O)N3CCN(c4ccccn4)CC3)cnn2c(C)c1Cc1cccc(Cl)c1	DT40 TDP1 CPT inconclusive, TDP1 cell noCPT 23µM
CCSc1ncc(Cl)c(C(=O)Nc2nc3ccc(Cl)cc3s2)n1	none (no result: uPA surface inh)
CNC(=O)C1CCC(Cn2c(=O)c3sccc3n(Cc3ccccc3)c2=O)CC1 (configuration not stated)	DT40 TDP1 CPT inconclusive, TDP1 cell noCPT inconclusive (no result: uPA surface inh)
O=C(C1CCC(Cn2c(=O)c3sccc3n(Cc3cccc(F)c3)c2=O)CC1)N1CCCCC1 (configuration not stated)	DT40 TDP1 CPT inconclusive, TDP1 cell noCPT 5.8µM, miR-21 reporter inconclusive (no result: uPA surface inh)
COCCCn1c(=O)c2sccc2n(Cc2cccc(F)c2)c1=O	none (no result: TDP1 inh)
O=C(C1CCC(Cn2c(=O)c3sccc3n(Cc3cccc(F)c3)c2=O)CC1)N1CCOCC1 (configuration not stated)	DT40 TDP1 CPT inconclusive, TDP1 cell noCPT 16µM (no result: uPA surface inh)
O=C(CCn1c(=O)c2sccc2n(Cc2cccc(F)c2)c1=O)NCc1ccc2c(c1)OCO2	none (no result: uPA surface inh)
CNC(=O)C1CCC(Cn2c(=O)c3sccc3n(Cc3ccc(F)cc3)c2=O)CC1 (configuration not stated)	DT40 TDP1 CPT 8.2µM, TDP1 cell noCPT 8.2µM (no result: uPA surface inh)
O=c1c2sccc2n(Cc2cccc(F)c2)c(=O)n1-c1ccc(F)cc1	DT40 TDP1 CPT 15µM, TDP1 cell noCPT 18µM
Cn1c(=O)c2sccc2n(Cc2cccc(Br)c2)c1=O	DT40 TDP1 CPT 12µM, TDP1 cell noCPT inconclusive (no result: TDP1 inh)
Cc1ccc(Cn2c(=O)n(CC3CCC(C(=O)N4CCOCC4)CC3)c(=O)c3sccc32)cc1 (configuration not stated)	DT40 TDP1 CPT 21µM, TDP1 cell noCPT 16µM (no result: uPA surface inh)
Cc1ccccc1Cn1c(=O)n(CC2CCC(C(=O)N3CCOCC3)CC2)c(=O)c2sccc21 (configuration not stated)	DT40 TDP1 CPT inconclusive, TDP1 cell noCPT inconclusive (no result: uPA surface inh)
Cc1cc(N2CCN(S(=O)(=O)c3ccccc3)CC2)nc2c(C)cccc12	DT40 TDP1 CPT inconclusive
COc1ccccc1-c1noc(-c2ccc(N3CCOCC3)c([N+](=O)[O-])c2)n1	DT40 TDP1 CPT 21µM, TDP1 cell noCPT 13µM (no result: uPA surface inh)
COc1ccc(-c2noc(-c3ccc(N4CCN(C)CC4)c([N+](=O)[O-])c3)n2)cc1OC	DT40 TDP1 CPT 5.2µM, TDP1 cell noCPT 3.3µM (no result: uPA surface inh)
Cc1ccc(Cl)cc1N1CCN(C(=O)Cn2nc(C)c3sc4ccccc4c3c2=O)CC1	none (no result: uPA surface inh)
Cc1ccccc1NS(=O)(=O)c1ccc(C(=O)N2CC(C)OC(C)C2)cc1 (configuration not stated)	TDP1 cell noCPT inconclusive (no result: miR-21 reporter)
CCOC(=O)COc1ccc([N+](=O)[O-])cc1-c1ccnc2cc(-c3ccc(C)cc3)nn12	none (no result: uPA surface inh)
Cc1ccc(-c2cc3ncc(C(=O)c4cc([N+](=O)[O-])ccc4O)cn3n2)cc1	DT40 TDP1 CPT inconclusive, TDP1 cell noCPT 2.3µM (no result: uPA surface inh)
Cc1ccc(-c2cc3nccc(-c4cc([N+](=O)[O-])ccc4O)n3n2)cc1	DT40 TDP1 CPT 23µM, TDP1 cell noCPT 23µM, miR-21 reporter inconclusive (no result: uPA surface inh)
CCOC(=O)c1c(-c2ccc(C)o2)csc1NC(=O)CSc1nnc(C)s1	DT40 TDP1 CPT inconclusive, TDP1 cell noCPT inconclusive
CCOC(=O)c1c(-c2ccc(-c3ccccc3)cc2)csc1NC(=O)CNCCN(C)C	DT40 TDP1 CPT inconclusive, TDP1 cell noCPT 23µM, miR-21 reporter inconclusive (no result: TDP1 inh)
CCOC(=O)c1sc(NC(=S)NC(=O)c2ccccc2Cl)c(C(=O)OCC)c1C	DT40 TDP1 CPT inconclusive, TDP1 cell noCPT 26µM
CCOC(=O)c1c(-c2ccccc2)csc1NC(=O)CCN1C(=O)c2ccccc2C1=O	TDP1 cell noCPT inconclusive
CCOC(=O)c1c(-c2ccccc2)csc1NC(=O)c1cc2ccccc2oc1=O	DT40 TDP1 CPT inconclusive, TDP1 cell noCPT 16µM
CCOC(=O)c1sc(NC(=S)NC(=O)c2ccccc2)c(C(=O)OCC)c1C	DT40 TDP1 CPT inconclusive, TDP1 cell noCPT inconclusive
CCOC(=O)c1c(-c2ccccc2)csc1NC(=O)CSc1nnc(C)s1	DT40 TDP1 CPT 23µM, TDP1 cell noCPT inconclusive
CCOC(=O)c1c(-c2ccccc2)csc1NC(=O)c1cc(=O)c2ccc(C)cc2o1	none (no result: uPA surface inh)
O=C(CSc1cn(CC(=O)N2CCCC2)c2ccccc12)NCC1CCCO1 (configuration not stated)	none
CCCCNC(=O)CSc1nc2nc(C)c(Cc3c(F)cccc3Cl)c(C)n2n1	DT40 TDP1 CPT inconclusive, TDP1 cell noCPT inconclusive (no result: uPA surface inh)
CCOC(=O)c1c(NC(=O)CCl)sc(CN(C)C)c1-c1ccccc1	DT40 TDP1 CPT 4.1µM, TDP1 cell noCPT 9.2µM
CCOC(=O)c1c(-c2cccs2)csc1NC(C)=O	TDP1 cell noCPT inconclusive
CCOC(=O)c1c(-c2ccc(-c3ccccc3)cc2)csc1NC(=O)c1cccc(N2C(=O)CCC2=O)c1	DT40 TDP1 CPT 8.2µM, TDP1 cell noCPT 6.5µM
CCOC(=O)c1c(NC(=O)CN2CCCCC2)sc(CN(C)C)c1-c1ccccc1	DT40 TDP1 CPT inconclusive, TDP1 cell noCPT inconclusive

Screening data from PubChem BioAssay.
